Here are results for 1 compound from ChEMBL document CHEMBL6096729, “Creating Glepaglutide, the First Long-Acting GLP-2 Analogue to Enable a Ready-to-Use Injection” (J Med Chem, 2025).

For orientation: EC50 means the concentration at which the effect is half-maximal.

For this assay, the target named is T1, Glucagon-like peptide 2 receptor (Homo sapiens, UniProt O95838).
T1 sequence (O95838 whole entry): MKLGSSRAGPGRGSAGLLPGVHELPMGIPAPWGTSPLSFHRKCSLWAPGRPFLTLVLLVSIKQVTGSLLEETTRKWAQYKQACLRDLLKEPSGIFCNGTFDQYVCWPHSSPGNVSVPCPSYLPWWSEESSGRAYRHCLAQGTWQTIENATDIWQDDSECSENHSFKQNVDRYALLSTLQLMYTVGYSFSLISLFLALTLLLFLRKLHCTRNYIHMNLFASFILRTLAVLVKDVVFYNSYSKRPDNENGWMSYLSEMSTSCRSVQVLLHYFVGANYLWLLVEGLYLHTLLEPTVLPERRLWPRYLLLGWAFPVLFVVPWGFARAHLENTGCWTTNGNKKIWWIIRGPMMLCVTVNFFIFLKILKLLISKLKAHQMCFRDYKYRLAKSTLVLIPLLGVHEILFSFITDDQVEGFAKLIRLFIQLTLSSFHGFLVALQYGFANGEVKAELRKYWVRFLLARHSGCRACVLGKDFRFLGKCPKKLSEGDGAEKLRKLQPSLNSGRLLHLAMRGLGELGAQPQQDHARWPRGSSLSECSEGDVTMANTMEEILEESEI
As to the kind of experiment: Agonist activity at recombinant human GLP-2R overexpressed in HEK293 cells assessed as cAMP accumulation by HTRF assay. In kind it is functional, cell-based. On the technique in general: cAMP levels reflect the balance of adenylyl cyclase and phosphodiesterase activity.

With `CC[C@H](C)[C@H](NC(=O)[C@H](Cc1ccccc1)NC(=O)[C@H](CC(=O)O)NC(=O)[C@H](CCCNC(=N)N)NC(=O)[C@H](C)NC(=O)[C@H](C)NC(=O)[C@H](CC(C)C)NC(=O)[C@H](CC(N)=O)NC(=O)[C@H](CC(=O)O)NC(=O)[C@H](CC(C)C)NC(=O)[C@@H](NC(=O)[C@@H](NC(=O)[C@H](CC(N)=O)NC(=O)[C@H](CCSC)NC(=O)[C@H](CCC(=O)O)NC(=O)[C@H](CC(=O)O)NC(=O)[C@H](CO)NC(=O)[C@H](Cc1ccccc1)NC(=O)[C@H](CO)NC(=O)CNC(=O)[C@H](CC(=O)O)NC(=O)CNC(=O)[C@@H](N)Cc1c[nH]cn1)[C@@H](C)O)[C@@H](C)CC)C(=O)N[C@@H](CC(N)=O)C(=O)N[C@@H](Cc1c[nH]c2ccccc12)C(=O)N[C@@H](CC(C)C)C(=O)N[C@H](C(=O)N[C@@H](CCC(N)=O)C(=O)N[C@H](C(=O)N[C@@H](CCCCN)C(=O)N[C@H](C(=O)N[C@H](C(=O)N[C@@H](CC(=O)O)C(=O)O)[C@@H](C)O)[C@@H](C)CC)[C@@H](C)O)[C@@H](C)CC` [TEDUGLUTIDE], the EC50 is 0.03 nM.
